The results in this text go back to PubChem BioAssay AID504834 (National Center for Advancing Translational Sciences (NCATS), 2011).

This is a selection; strong and weak results do not stand in their true shares. Some tests of the compounds listed are not included; inactive here does not mean inactive elsewhere. Results filed as inconclusive are left out. Entries that show only a call come without a potency. Activity calls are given as the source filed them. The call rests on the fitted dose curve; in most records, active means well fitted inhibition curve with a large enough effect; inconclusive means small, poorly fitted or top-dose-only effect, or another doubt; inactive means no such curve, though single readings can be large or run the other way.
Potency means the concentration at half of the fitted maximal effect.

The experiment in a line: Primary qHTS for delayed death inhibitors of the malarial parasite plastid, 96 hour incubation. The conditions noted are these: P. falciparum luciferase reporter growth; series mostly up to 28.7 µM. For orientation: In qHTS, concentration-response curves come from the screen itself.
Turning to `C=CCN1CCN(CCOC(=O)C(O)(c2ccccc2)c2ccccc2)CC1`, the Potency result was “inactive”.

`CN1CCCC(OC(=O)C(O)(c2ccccc2)c2ccccc2)C1` (stereo not drawn): the Potency was active: 1.9 µM.

On to `CC(C)N1C(=O)CC2(CCN(CCOC(=O)C(O)(c3ccccc3)c3ccccc3)CC2)C1=O`, for which the Potency result was “inactive”.
